Reference: article PMC8447886

Experiments:
[1] = target: I530S DIAPH1-NT (human); assay: SEC-MALS
[2] = target: WT DIAPH1-NT (human); assay: SEC-MALS

Substance | stoichiometry N [1] | stoichiometry N [2]
I530S DIAPH1-NT (domain or fragment) | 2 | 
WT DIAPH1-NT (domain or fragment) |  | 2
